Laboratory results taken from ChEMBL document CHEMBL4049419, “Structure-Based Discovery of New Antagonist and Biased Agonist Chemotypes for the Kappa Opioid Receptor” (J Med Chem, 2017).

The chains behind the UniProt entries cited, without tags or fusion partners.
UniProt P35372, whole entry, looked up: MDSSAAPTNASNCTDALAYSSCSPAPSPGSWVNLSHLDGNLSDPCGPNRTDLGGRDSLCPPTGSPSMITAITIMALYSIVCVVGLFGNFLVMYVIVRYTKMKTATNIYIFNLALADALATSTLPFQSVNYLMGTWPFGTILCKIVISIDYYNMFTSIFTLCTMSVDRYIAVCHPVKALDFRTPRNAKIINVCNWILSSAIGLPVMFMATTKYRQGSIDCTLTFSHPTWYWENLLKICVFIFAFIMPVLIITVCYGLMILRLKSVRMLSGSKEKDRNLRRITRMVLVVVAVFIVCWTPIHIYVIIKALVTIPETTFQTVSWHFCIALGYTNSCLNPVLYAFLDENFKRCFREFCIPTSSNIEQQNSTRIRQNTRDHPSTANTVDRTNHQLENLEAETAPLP
UniProt P41143, whole entry, looked up: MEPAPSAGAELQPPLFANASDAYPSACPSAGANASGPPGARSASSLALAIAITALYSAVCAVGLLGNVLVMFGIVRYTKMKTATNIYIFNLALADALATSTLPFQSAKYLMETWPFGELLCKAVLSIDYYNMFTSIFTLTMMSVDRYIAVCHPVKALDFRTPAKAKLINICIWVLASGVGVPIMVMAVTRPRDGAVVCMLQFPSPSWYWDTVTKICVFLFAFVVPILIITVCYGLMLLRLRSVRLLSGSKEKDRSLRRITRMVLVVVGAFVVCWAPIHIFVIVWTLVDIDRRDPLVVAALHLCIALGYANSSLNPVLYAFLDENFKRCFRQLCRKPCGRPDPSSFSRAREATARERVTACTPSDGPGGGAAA

Experiments:
[1] = biological target: Mu-type opioid receptor (Homo sapiens) (UniProt P35372); assay: Agonist activity at MOR (unknown origin) expressed in HEK293T cells coexpressing Gi assessed as Gi-mediated inhibition of cAMP production incubated for 15 mins followed by Gs activator isoproterenol addition measured after 15 mins by luciferase reporter gene assay relative to DAMGO
[2] = biological target: Delta-type opioid receptor (Homo sapiens) (UniProt P41143); assay: Agonist activity at DOR (unknown origin) expressed in HEK293T cells coexpressing Gi assessed as Gi-mediated inhibition of cAMP production incubated for 15 mins followed by Gs activator isoproterenol addition measured after 15 mins by luciferase reporter gene assay relative to DADLE

| SMILES | inhibition [1] | inhibition [2] |
| --- | --- | --- |
| CC(c1cccc(O)c1)N(C)Cc1nccn1CC(F)(F)F (centres undefined) | 70% | 50% |
| CC(NCc1nccn1C)c1cccc(O)c1 (centres undefined) | 70% | 50% |
